{"sequences": {"note": "Sequences of proteins named here, by UniProt entry; tags and fusion partners are left off. Residues count along the entry.", "UniProt P00533, 25-1210 T790M/L858R limits assumed": "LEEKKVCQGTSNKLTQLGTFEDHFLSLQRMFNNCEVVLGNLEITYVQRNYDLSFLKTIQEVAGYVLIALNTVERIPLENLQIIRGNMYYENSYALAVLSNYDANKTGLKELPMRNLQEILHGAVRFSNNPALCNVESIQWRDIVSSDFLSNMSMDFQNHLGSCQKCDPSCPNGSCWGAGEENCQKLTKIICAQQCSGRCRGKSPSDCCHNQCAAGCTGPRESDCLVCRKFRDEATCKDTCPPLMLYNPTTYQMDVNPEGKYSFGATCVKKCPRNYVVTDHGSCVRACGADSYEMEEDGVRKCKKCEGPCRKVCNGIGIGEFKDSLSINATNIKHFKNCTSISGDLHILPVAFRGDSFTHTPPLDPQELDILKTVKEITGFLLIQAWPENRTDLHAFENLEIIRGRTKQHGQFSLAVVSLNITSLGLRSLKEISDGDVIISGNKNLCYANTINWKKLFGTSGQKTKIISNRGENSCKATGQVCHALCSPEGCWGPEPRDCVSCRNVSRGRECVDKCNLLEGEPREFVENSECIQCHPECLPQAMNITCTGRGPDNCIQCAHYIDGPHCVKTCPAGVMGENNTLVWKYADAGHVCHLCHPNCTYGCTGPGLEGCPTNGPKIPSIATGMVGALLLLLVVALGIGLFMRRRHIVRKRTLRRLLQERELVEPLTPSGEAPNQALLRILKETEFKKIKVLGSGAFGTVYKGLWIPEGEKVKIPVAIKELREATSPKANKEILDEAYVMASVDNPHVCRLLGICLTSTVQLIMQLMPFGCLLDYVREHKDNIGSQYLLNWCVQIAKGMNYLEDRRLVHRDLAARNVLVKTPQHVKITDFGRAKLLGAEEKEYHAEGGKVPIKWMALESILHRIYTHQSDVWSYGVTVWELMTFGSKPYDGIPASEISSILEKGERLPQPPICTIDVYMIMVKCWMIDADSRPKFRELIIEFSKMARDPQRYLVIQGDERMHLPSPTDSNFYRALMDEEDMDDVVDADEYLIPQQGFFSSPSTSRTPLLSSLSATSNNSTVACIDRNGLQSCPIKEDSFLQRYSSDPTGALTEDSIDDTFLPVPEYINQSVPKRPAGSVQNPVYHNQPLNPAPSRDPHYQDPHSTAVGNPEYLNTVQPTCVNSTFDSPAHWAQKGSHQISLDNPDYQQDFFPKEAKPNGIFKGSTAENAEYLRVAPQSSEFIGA"}, "source": "patent US9890152B2", "about": "(Genentech, Inc., priority 2012, dated 2018)"}
{"biological_target": "EGFR T790M L858R (Homo sapiens, UniProt P00533, L858R/T790M)", "assay": "biochemical", "details": "EGFR(T790M/L858R) Ki (μM), 5 μM ATP, 30 min, room temperature; apparent Ki (Morrison) converted by Cheng-Prusoff, Km of ATP 1.3 μM", "units": {"Ki": "µM"}}
{"smiles": "COCCS(=O)(=O)n1cc(-c2nccc(Nc3cc4c(cn3)nc(C)n4C(C)C)n2)cn1", "note": "[Example 93, 1-isopropyl-N-(2-(1-((2-methoxyethyl)sulfonyl)-1H-pyrazol-4-yl)pyrimidin-4-yl)-2-methyl-1H-imidazo[4,5-c]pyridin-6-amine]", "Ki": 0.0023}
{"smiles": "CC(C)n1cnc2cnc(Nc3ccnc(-c4cnc(O)nc4)n3)cc21", "note": "[Example 94, 4-((1-isopropyl-1H-imidazo[4,5-c]pyridin-6-yl)amino)-[2,5′-bipyrimidin]-2′-ol]", "Ki": 0.434}
{"smiles": "CC(C)n1cnc2cnc(Nc3ccnc(-c4cnn(CCO)c4)n3)cc21", "note": "[Example 95, 2-(4-(4-((1-isopropyl-1H-imidazo[4,5-c]pyridin-6-yl)amino)pyrimidin-2-yl)-1H-pyrazol-1-yl)ethanol]", "Ki": 0.232}
{"smiles": "CC(C)n1cnc2cnc(Nc3ccnc(-c4cn[nH]c4)n3)cc21", "note": "[Example 96, N-(2-(1H-pyrazol-4-yl)pyrimidin-4-yl)-1-isopropyl-1H-imidazo[4,5-c]pyridin-6-amine]", "Ki": 0.111}
{"smiles": "CC(C)n1cnc2cnc(Nc3ccnc(-c4cnn(S(=O)(=O)C5CC5)c4)n3)cc21", "note": "[Example 97, N-(2-(1-(cyclopropylsulfonyl)-1H-pyrazol-4-yl)pyrimidin-4-yl)-1-isopropyl-1H-imidazo[4,5-c]pyridin-6-amine]", "Ki": 0.0035}
{"smiles": "CC(C)n1cc(-c2nccc(Nc3cc4c(cn3)ncn4C(C)C)n2)cn1", "note": "[Example 98, 1-isopropyl-N-(2-(1-isopropyl-1H-pyrazol-4-yl)pyrimidin-4-yl)-1H-imidazo[4,5-c]pyridin-6-amine]", "Ki": 0.182}
{"smiles": "COc1ncc(-c2nccc(Nc3cc4c(cn3)ncn4C(C)C)n2)cn1", "note": "[Example 99, 1-isopropyl-N-(2′-methoxy-[2,5′-bipyrimidin]-4-yl)-1H-imidazo[4,5-c]pyridin-6-amine]", "Ki": 0.361}
{"smiles": "CCOC1CCN(c2nccc(Nc3cc4c(cn3)ncn4C(C)C)n2)CC1", "note": "[Example 100, N-(2-(4-ethoxypiperidin-1-yl)pyrimidin-4-yl)-1-isopropyl-1H-imidazo[4,5-c]pyridin-6-amine]", "Ki": 0.115}
{"smiles": "CC(C)n1cnc2cnc(Nc3ccnc(N4CC5(CCOCC5)C4)n3)cc21", "note": "[Example 103, N-(2-(7-oxa-2-azaspiro[3.5]nonan-2-yl)pyrimidin-4-yl)-1-isopropyl-1H-imidazo[4,5-c]pyridin-6-amine]", "Ki": 1.44}
{"smiles": "CC(C)n1cnc2cnc(Nc3ccnc(NC4CCCS(=O)(=O)C4)n3)cc21", "note": "(stereo not shown) [Example 106, 3-((4-((1-isopropyl-1H-imidazo[4,5-c]pyridin-6-yl)amino)pyrimidin-2-yl)amino)tetrahydro-2H-thiopyran 1,1-dioxide]", "Ki": 1.32}
{"smiles": "CC(C)n1cnc2cnc(Nc3ccnc(N4CCC5(COC5)C4)n3)cc21", "note": "[Example 107, N-(2-(2-oxa-6-azaspiro[3.4]octan-6-yl)pyrimidin-4-yl)-1-isopropyl-1H-imidazo[4,5-c]pyridin-6-amine]", "Ki": 0.241}
{"smiles": "CC(C)n1cnc2cnc(Nc3ccnc(NC4CC(O)C4)n3)cc21", "note": "(stereo not shown) [Example 108, 3-((4-((1-isopropyl-1H-imidazo[4,5-c]pyridin-6-yl)amino)pyrimidin-2-yl)amino)cyclobutanol]", "Ki": 0.432}
{"smiles": "Cc1nc2cnc(Nc3ccnc(N4Cc5cn[nH]c5C(C)(C)C4)n3)cc2n1C(C)C", "note": "[Example 111, N-(2-(7,7-dimethyl-6,7-dihydro-1H-pyrazolo[4,3-c]pyridin-5(4H)-yl)pyrimidin-4-yl)-1-isopropyl-2-methyl-1H-imidazo[4,5-c]pyridin-6-amine]", "Ki": 0.0744}
{"smiles": "CNS(=O)(=O)CCNc1nccc(Nc2cc3c(cn2)ncn3C(C)C)n1", "note": "[Example 112, 2-((4-((1-isopropyl-1H-imidazo[4,5-c]pyridin-6-yl)amino)pyrimidin-2-yl)amino)-N-methylethanesulfonamide]", "Ki": 1.35}
{"smiles": "Cc1nc2cnc(Nc3ccnc(NCC(C)(C)C(N)=O)n3)cc2n1C(C)C", "note": "[Example 113, 3-((4-((1-isopropyl-2-methyl-1H-imidazo[4,5-c]pyridin-6-yl)amino)pyrimidin-2-yl)amino)-2,2-dimethylpropanamide]", "Ki": 0.024}
{"smiles": "COC1CCN(c2nccc(Nc3cc4c(cn3)c(C(=O)NC3CCN(C)CC3)cn4C(C)C)n2)CC1", "note": "[Example 114, 1-isopropyl-6-((2-(4-methoxypiperidin-1-yl)pyrimidin-4-yl)amino)-N-(1-methylpiperidin-4-yl)-1H-pyrrolo[3,2-c]pyridine-3-carboxamide]", "Ki": 0.0012}
{"smiles": "COC1CCN(c2nccc(Nc3cc4c(cn3)c(C(=O)O)cn4C(C)C)n2)CC1", "note": "[Example 116, 1-isopropyl-6-((2-(4-methoxypiperidin-1-yl)pyrimidin-4-yl)amino)-1H-pyrrolo[3,2-c]pyridine-3-carboxylic acid]", "Ki": 0.0247}
{"smiles": "COC1CCN(c2nccc(Nc3cc4c(cn3)c(C(=O)NC3CCOCC3)cn4C(C)C)n2)CC1", "note": "[Example 117, 1-isopropyl-6-((2-(4-methoxypiperidin-1-yl)pyrimidin-4-yl)amino)-N-(tetrahydro-2H-pyran-4-yl)-1H-pyrrolo[3,2-c]pyridine-3-carboxamide]", "Ki": 0.0037}
{"smiles": "COC1CCN(c2nccc(Nc3cc4c(cn3)c(C(=O)N3CCOCC3)cn4C(C)C)n2)CC1", "note": "[Example 118, (1-isopropyl-6-((2-(4-methoxypiperidin-1-yl)pyrimidin-4-yl)amino)-1H-pyrrolo[3,2-c]pyridin-3-yl)(morpholino)methanone]", "Ki": 0.0886}
{"smiles": "COC1CCN(c2nccc(Nc3cc4c(cn3)c(C(=O)N3CCCC3)cn4C(C)C)n2)CC1", "note": "[Example 119, (1-isopropyl-6-((2-(4-methoxypiperidin-1-yl)pyrimidin-4-yl)amino)-1H-pyrrolo[3,2-c]pyridin-3-yl)(pyrrolidin-1-yl)methanone]", "Ki": 0.0172}
{"smiles": "COC1CCN(c2nccc(Nc3cc4c(cn3)c(C(=O)NC(C)C)cn4C(C)C)n2)CC1", "note": "[Example 120, N,1-diisopropyl-6-((2-(4-methoxypiperidin-1-yl)pyrimidin-4-yl)amino)-1H-pyrrolo[3,2-c]pyridine-3-carboxamide]", "Ki": 0.0054}
{"smiles": "COC1CCN(c2nccc(Nc3cc4c(cn3)c(C(=O)NCCO)cn4C(C)C)n2)CC1", "note": "[Example 121, N-(2-hydroxyethyl)-1-isopropyl-6-((2-(4-methoxypiperidin-1-yl)pyrimidin-4-yl)amino)-1H-pyrrolo[3,2-c]pyridine-3-carboxamide]", "Ki": 0.0075}
{"smiles": "CCN1CCN(C(=O)c2cn(C(C)C)c3cc(Nc4ccnc(N5CCC(OC)CC5)n4)ncc23)CC1", "note": "[Example 122, (4-ethylpiperazin-1-yl)(1-isopropyl-6-((2-(4-methoxypiperidin-1-yl)pyrimidin-4-yl)amino)-1H-pyrrolo[3,2-c]pyridin-3-yl)methanone]", "Ki": 0.0442}
{"smiles": "CCOC1CCN(c2nccc(Nc3cc4c(cn3)c(C(N)=O)cn4C(C)C)n2)CC1", "note": "[Example 123, 6-((2-(4-ethoxypiperidin-1-yl)pyrimidin-4-yl)amino)-1-isopropyl-1H-pyrrolo[3,2-c]pyridine-3-carboxamide]", "Ki": 0.0148}
{"smiles": "CC(C)OC1CCN(c2nccc(Nc3cc4c(cn3)c(C(N)=O)cn4C(C)C)n2)CC1", "note": "[Example 124, 6-((2-(4-isopropoxypiperidin-1-yl)pyrimidin-4-yl)amino)-1-isopropyl-1H-pyrrolo[3,2-c]pyridine-3-carboxamide]", "Ki": 0.0255}
{"smiles": "CC(C)n1cc(C(N)=O)c2cnc(Nc3ccnc(N4CCC(OC5CC5)CC4)n3)cc21", "note": "[Example 125, 6-((2-(4-cyclopropoxypiperidin-1-yl)pyrimidin-4-yl)amino)-1-isopropyl-1H-pyrrolo[3,2-c]pyridine-3-carboxamide]", "Ki": 0.0203}
{"smiles": "CC(C)n1cc(C(N)=O)c2cnc(Nc3ccnc(NC4CCS(=O)(=O)C4)n3)cc21", "note": "(stereo not shown) [Example 126, 6-((2-((1,1-dioxidotetrahydrothiophen-3-yl)amino)pyrimidin-4-yl)amino)-1-isopropyl-1H-pyrrolo[3,2-c]pyridine-3-carboxamide]", "Ki": 0.372}
{"smiles": "CC(C)n1ccc2cnc(Nc3ccnc(N(C)CCO)n3)cc21", "note": "[Example 127]", "Ki": 0.355}
{"smiles": "CN(CCO)c1nccc(Nc2cc3c(ccn3-c3ccccc3)cn2)n1", "note": "[Example 128, 2-{Methyl-[4-(1-phenyl-1H-pyrrolo[3,2-c]pyridin-6-ylamino)pyrimidin-2-yl]amino}ethanol]", "Ki": 0.0593}
{"smiles": "CC(C)n1cnc2cnc(Nc3ccnc(N4CCCCC4)n3)cc21", "note": "[Example 130, (1-Isopropyl-1H-imidazo[4,5-c]pyridin-6-yl)-(2-piperidin-1-yl-pyrimidin-4-yl)amine]", "Ki": 0.0979}
{"smiles": "CC(C)n1cnc2cnc(Nc3ccnc(N4CCC(C(N)=O)CC4)n3)cc21", "note": "[Example 131, 1-[4-(1-Isopropyl-1H-imidazo[4,5-c]pyridin-6-ylamino)pyrimidin-2-yl]piperidine-4-carboxylic acid amide]", "Ki": 0.11}
{"smiles": "CC(C)n1cnc2cnc(Nc3ccnc(N4CCNC(=O)C4)n3)cc21", "note": "[Example 132, 4-[4-(1-Isopropyl-1H-imidazo[4,5-c]pyridin-6-ylamino)pyrimidin-2-yl]piperazin-2-one]", "Ki": 0.988}
{"smiles": "CC(C)n1cnc2cnc(Nc3ccnc(N4CCC(n5cccn5)CC4)n3)cc21", "note": "[Example 133, (1-Isopropyl-1H-imidazo[4,5-c]pyridin-6-yl)-[2-(4-pyrazol-1-ylpiperidin-1-yl)pyrimidin-4-yl]amine]", "Ki": 0.551}
{"smiles": "CC(C)n1cnc2cnc(Nc3ccnc(N4CCC(n5ccnc5)CC4)n3)cc21", "note": "[Example 134, [2-(4-Imidazol-1-yl-piperidin-1-yl)pyrimidin-4-yl]-(1-isopropyl-1H-imidazo[4,5-c]pyridin-6-yl)amine]", "Ki": 0.109}
{"smiles": "CC(C)n1cnc2cnc(Nc3ccnc(N4CCC(n5cncn5)CC4)n3)cc21", "note": "[Example 135, (1-Isopropyl-1H-imidazo[4,5-c]pyridin-6-yl)-[2-(4-[1,2,4]triazol-1-ylpiperidin-1-yl)pyrimidin-4-yl]amine]", "Ki": 0.101}
{"smiles": "CC(C)n1cnc2cnc(Nc3ccnc(N4CCCCO4)n3)cc21", "note": "[Example 136, (1-Isopropyl-1H-imidazo[4,5-c]pyridin-6-yl)-(2-[1,2]oxazinan-2-ylpyrimidin-4-yl)amine]", "Ki": 1.68}
{"smiles": "CC(C)n1cnc2cnc(Nc3ccnc(N4CCSCC4)n3)cc21", "note": "[Example 137, (1-Isopropyl-1H-imidazo[4,5-c]pyridin-6-yl)-(2-thiomorpholin-4-ylpyrimidin-4-yl)amine]", "Ki": 0.158}
